In the data set the test system is human primary hepatocytes. Put plainly: Nucleoside triphosphate metabolite (3P) production in human primary hepatocytes. The data set is classed as in vitro ADME. Conditions: 25 μM test compound, 6 h, 37° C.
“((2R,3R,4R,5R)-5-(2,4-dioxo-3,4-dihydropyrimidin-1(2H)-yl)-4-fluoro-3-hydroxy-4-methyl tetrahydrofuran-2-yl)methyl-phenyl-((R)-1-(2-methylbenzyloxy)propan-2-yl)phosphoramidate”: the 3P production amount is reported as 4170 nM and the 3P production rate is reported as 11.5 pmol/10^6/min.

Consider “((2R,3R,4R,5R)-5-(2,4-dioxo-3,4-dihydropyrimidin-1(2H)-yl)-4-fluoro-3-hydroxy-4-methyltetrahydro furan-2-yl)methyl-phenyl-((S)-1-(2-methylbenzyloxy)propan-2-yl)phosphoramidate”, for which the 3P production amount is 1273 nM and the 3P production rate was 3.5 pmol/10^6/min.

Consider “(R)-((((R)-1-(6-amino-9H-purin-9-yl)propan-2-yl)oxy)methyl)-naphtha-1-yloxy-N-(2-(2-methylbenzyloxy)ethyl)-phosphoramide [Ex. 20 - Isomer A]”, for which the 3P production amount is recorded as 364 nM and the 3P production rate amounted to 1.01 pmol/10^6/min.

Take “(R)-((((R)-1-(6-amino-9H-purin-9-yl)propan-2-yl)oxy)methyl)-naphtha-1-yloxy-N-(2-(2-methylbenzyloxy)ethyl)-phosphoramide [Ex. 20 - Isomer B]”: the 3P production amount was found to be 625 nM and the 3P production rate worked out at 1.73 pmol/10^6/min.

For the origin of these results see patent publication US10899786B2, “Nucleoside phosphate compound and preparation method and use thereof” (SICHUAN KELUN-BIOTECH BIOPHARMACEUTICAL CO., LTD., priority 2016, dated 2021).
